These are literature values, as cited in patent US20220151944A1, “FLUOROURACIL-CONTAINING FORMULATIONS” (SISAF LIMITED, priority 2019, published 2022).

For this series the following is noted: 25° C.

Take orthosilicic acid: the pKa1 is on record as 9.84 and the pKa2 is 13.2.
